We go through 1 molecule from patent US20080139620A1, “Pyrazole Derivatives For The Inhibition Of Cdk's And Gsk's” (ASTEX THERAPEUTICS LIMITED, priority 2005, published 2008).

Amino acid sequences for entries named in this document (tags omitted). A change or cut given only in a name is not applied to a line headed by its entry.
UniProt P49841: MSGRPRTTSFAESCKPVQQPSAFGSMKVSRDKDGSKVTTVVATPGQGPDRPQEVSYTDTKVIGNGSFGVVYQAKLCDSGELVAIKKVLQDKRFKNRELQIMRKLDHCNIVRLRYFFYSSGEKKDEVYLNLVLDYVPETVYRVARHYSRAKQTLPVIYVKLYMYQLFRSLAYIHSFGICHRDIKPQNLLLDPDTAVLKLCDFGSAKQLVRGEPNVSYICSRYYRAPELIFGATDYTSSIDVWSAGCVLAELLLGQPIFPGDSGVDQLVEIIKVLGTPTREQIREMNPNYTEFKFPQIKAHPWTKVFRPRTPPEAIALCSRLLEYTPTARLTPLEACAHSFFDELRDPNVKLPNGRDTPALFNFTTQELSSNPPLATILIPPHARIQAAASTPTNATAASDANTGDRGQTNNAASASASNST

In this assay the target is T1, GSK3-β (Homo sapiens, UniProt P49841).
T1 construct: purchased Upstate Discovery
The experiment in a line: GSK3-B kinase inhibitory activity assay. In kind it is biochemical. Particulars: read-out: GSK3β IC50. On the procedure: GSK3-β (Upstate Discovery) are diluted to 7.5 nM in 25 mM MOPS, pH 7.00, 25 mg/ml BSA, 0.0025% Brij-35, 1.25% glycerol, 0.5 mM EDTA, 25 mM MgCl2, 0.025% β-mercaptoethanol, 37.5 mM ATP and 10 μl mixed with 10 μl of substrate mix. The substrate mix for GSK3-β is 12.5 μM phospho-glycogen synthase peptide-2 (Upstate Discovery) in 1 ml of water with 35 μCi γ^33P-ATP. Enzyme and substrate are added to 96 well plates along with 5 μl of various dilutions of the test compound in DMSO (up to 2.5%). The reaction is allowed to proceed for 3 hours (GSK3-β) before being stopped with an excess of ortho-phosphoric acid (5 μl at 2%). The filtration procedure is as for Activated CDK2/CyclinA assay above.

Usually IC50 stands for the concentration at which inhibition is half-maximal.

The structures appear in SMILES notation.

`CS(=O)(=O)N1CCC(NC(=O)c2n[nH]cc2NC(=O)c2c(Cl)cccc2Cl)CC1` [Example 1, 4-(2,6-dichloro-benzoylamino)-1H-pyrazole-3-carboxylic acid (1-methanesulphonyl-piperidin-4-yl)-amide]: the half-inhibitory concentration (IC50) amounted to 220 nM.
